Assay results taken from patent US5010106A, “Method of sterilizing anthers of plants” (dated 1991).

Assays:
[1] = system: winter wheat of Mironovskaya 808 variety; experiment: Chemical sterilization of anthers, field test, winter wheat (isolated ears / open pollination); details: Table 1, winter wheat Mironovskaya 808, V-th stage, 2% aqueous emulsion, 12 kg/ha; for Number of grains in ear under isolator: control 40.6; for Number of grains in ear in open pollination: control 42.6; for Percentage of setting of seeds in open pollination: control = 100%
[2] = system: spring wheat of Botanicheskaya 4 variety; experiment: Chemical sterilization of anthers, field test, spring wheat (isolated ears / open pollination); details: Table 3, spring wheat Botanicheskaya 4, V-th stage, 1% aqueous emulsion, 6 kg/ha; for Number of grains in ear under isolator: control 28.9; for Number of grains in ear in open pollination: control 30.9; for Percentage of grain setting in open pollination: control = 100%
[3] = system: spring wheat of Moskovskaya 35 variety; experiment: as above; details: Table 2, spring wheat Moskovskaya 35, VI-th stage, 1% aqueous emulsion, 8 kg/ha; for Number of grains in ear under isolator: control 29.4; for Number of grains in ear in open pollination: control 31.2; for Percentage of grain setting in open pollination: control = 100%
[4] = system: millet of Mironovskoye 94 variety; experiment: Chemical sterilization of anthers, field test, millet (isolated panicles / open pollination); details: Table 9, millet Mironovskoye 94, V-th stage, 1% aqueous emulsion, 10 kg/ha; for Number of grains in panicle under isolator: control 124.9; for Number of grains in panicle in open pollination: control 145.4; for Percentage of grain setting in open pollination: control = 100%
[5] = system: diploid rye of Chulpan variety; experiment: Chemical sterilization of anthers, field test, diploid rye (isolated ears / open pollination); details: Table 4, VI-th stage, 1.0% aqueous emulsion, 10 kg/ha; for Number of grains in ear under isolator: control 44.1; for Number of grains in ear in open pollination: control 49.6; for Percentage of grain setting in open pollination: control = 100%
[6] = system: tetraploid rye of Ukrainskaya tetra variety; experiment: Chemical sterilization of anthers, field test, tetraploid rye (isolated ears / open pollination); details: Table 5, 1% aqueous emulsion, 8 kg/ha; for Number of grains in ear under isolator: control 28.0 (Examples 24, 25), 36.1 (Examples 26, 27); for Number of grains in ear in open pollination: control 36.8 (Examples 24, 25), 40.2 (Examples 26, 27); for Percentage of grain setting in open pollination: control = 100%
sunflower of BK-119 line = experiment: Chemical sterilization of sunflower pollen; details: Table 13, V-th stage, 0.2% aqueous emulsion, 1.2 kg/ha
[7] = system: sunflower of Peredovik variety; experiment: Chemical sterilization of sunflower pollen; details: Table 13, V-th stage, 0.2% aqueous emulsion, 1.2 kg/ha
[8] = system: diploid rye of Kharkovskaya 55 variety; experiment: Chemical sterilization of anthers, field test, diploid rye (isolated ears / open pollination); details: Table 6, diploid rye Kharkovskaya 55, 1% aqueous emulsion, 6 kg/ha
[9] = system: triticale of PRAG-109 variety; experiment: Chemical sterilization of anthers, field test, triticale (isolated ears / open pollination); details: Table 7, triticale PRAG-109, V-th stage, 2% aqueous emulsion, 12 kg/ha
[10] = system: triticale of Amphidiploid 206 variety; experiment: as above; details: Table 8, triticale Amphidiploid 206, VI-th stage, 2% aqueous emulsion, 12 kg/ha

Compound: Cc1ccc(C(C)C)cc1
- Sterility percentage [1]: 98.3%
- Number of grains in ear under isolator [1]: 0.7
- Number of grains in ear in open pollination [1]: 39.9
- Percentage of setting of seeds in open pollination [1]: 93.7%
- Percentage of sterility [2]: 95.9%
- Number of grains in ear under isolator [2]: 1.2
- Number of grains in ear in open pollination [2]: 30.1
- Percentage of grain setting in open pollination [2]: 97.4%
- Sterility percentage [3]: 95.9%
- Number of grains in ear under isolator [3]: 1.2
- Number of grains in ear in open pollination [3]: 27.3
- Percentage of grain setting in open pollination [3]: 87.5%
- Sterility percentage [4]: 100.0%
- Number of grains in panicle under isolator [4]: 0.0
- Number of grains in panicle in open pollination [4]: 107.3
- Percentage of grain setting in open pollination [4]: 70.0%
- Sterility percentage [5]: 100.0%
- Number of grains in ear under isolator [5]: 0.0
- Number of grains in ear in open pollination [5]: 47.4
- Percentage of grain setting in open pollination [5]: 95.6%

Compound: CC1=CCC(=C(C)C)CC1
- Sterility percentage [1]: 98.5%
- Number of grains in ear under isolator [1]: 0.6
- Number of grains in ear in open pollination [1]: 40.2
- Percentage of setting of seeds in open pollination [1]: 94.4%
- Percentage of sterility [2]: 100.0%
- Number of grains in ear under isolator [2]: 0.0
- Number of grains in ear in open pollination [2]: 29.5
- Percentage of grain setting in open pollination [2]: 95.5%
- Sterility percentage [3]: 100.0%
- Number of grains in ear under isolator [3]: 0.0
- Number of grains in ear in open pollination [3]: 28.1
- Percentage of grain setting in open pollination [3]: 90.1%
- Sterility percentage [4]: 100.0%
- Number of grains in panicle under isolator [4]: 0.0
- Number of grains in panicle in open pollination [4]: 137.3
- Percentage of grain setting in open pollination [4]: 89.6%
- Sterility percentage [5]: 97.8%
- Number of grains in ear under isolator [5]: 0.8
- Number of grains in ear in open pollination [5]: 47.8
- Percentage of grain setting in open pollination [5]: 96.4%

Compound: CC1=CCC(C(C)(C)O)CC1 (centres unmarked)
- Sterility percentage [6]: 98.6%
- Number of grains in ear under isolator [6]: 0.4
- Number of grains in ear in open pollination [6]: 33.8
- Percentage of grain setting in open pollination [6]: 91.8%
- Sterility percentage [1]: 100.0%
- Number of grains in ear under isolator [1]: 0.0
- Number of grains in ear in open pollination [1]: 40.1
- Percentage of setting of seeds in open pollination [1]: 94.1%
- Percentage of sterility [2]: 100.0%
- Number of grains in ear under isolator [2]: 0.0
- Number of grains in ear in open pollination [2]: 28.4
- Percentage of grain setting in open pollination [2]: 91.9%
- Sterility percentage [3]: 100.0%
- Number of grains in ear under isolator [3]: 0.0
- Number of grains in ear in open pollination [3]: 27.2
- Percentage of grain setting in open pollination [3]: 87.2%
- Sterility percentage [4]: 100.0%
- Number of grains in panicle under isolator [4]: 0.0
- Number of sterile plants (sunflower of BK-119 line; control 0.0): 100.0%
- Oil content of achenes (sunflower of BK-119 line; control 51.0): 49.4%
- Mass of 1,000 achenes (sunflower of BK-119 line; control 60.0): 55.4 g
- Percentage of setting of achenes pollination with the pollen mixture under isolator (sunflower of BK-119 line; control 72.6): 0.0%
- Percentage of setting in open pollination (sunflower of BK-119 line; control 85.0): 80.4%
- Germination rate of achenes (sunflower of BK-119 line; control 100.0): 100.0%
- Number of sterile plants ([7]; control 0.0): 100.0%
- Oil content of achenes ([7]; control 54.7): 53.4%
- Mass of 1,000 achenes ([7]; control 84.0): 82.3 g
- Percentage of setting in open pollination ([7]; control 85.0): 80.0%
- Percentage of setting of achenes pollination with the pollen mixture under isolator ([7]; control 85.0): 0.0%
- Germination rate of achenes ([7]; control 100.0): 100.0%

Compound: C=C(C)C1CC=C(C)CC1 (centres unmarked)
- Sterility percentage [1]: 90.7%
- Number of grains in ear under isolator [1]: 3.8
- Number of grains in ear in open pollination [1]: 41.8
- Percentage of setting of seeds in open pollination [1]: 98.1%
- Percentage of sterility [2]: 97.2%
- Number of grains in ear under isolator [2]: 0.8
- Number of grains in ear in open pollination [2]: 27.3
- Percentage of grain setting in open pollination [2]: 88.3%
- Sterility percentage [3]: 97.3%
- Number of grains in ear under isolator [3]: 0.8
- Number of grains in ear in open pollination [3]: 30.0
- Percentage of grain setting in open pollination [3]: 96.2%
- Sterility percentage [4]: 100.0%
- Number of grains in panicle under isolator [4]: 0.0
- Number of grains in panicle in open pollination [4]: 109.3
- Percentage of grain setting in open pollination [4]: 71.1%
- Sterility percentage [5]: 99.2%
- Number of grains in ear under isolator [5]: 0.3
- Number of grains in ear in open pollination [5]: 43.2
- Percentage of grain setting in open pollination [5]: 87.1%

Compound: CC(=O)OC(C)(C)C1CC=C(C)CC1 (centres unmarked)
- Sterility percentage [6]: 100.0%
- Number of grains in ear under isolator [6]: 0.0
- Number of grains in ear in open pollination [6]: 32.8
- Percentage of grain setting in open pollination [6]: 81.6%
- Sterility percentage [1]: 100.0%
- Number of grains in ear under isolator [1]: 0.0
- Number of grains in ear in open pollination [1]: 38.8
- Percentage of setting of seeds in open pollination [1]: 91.1%
- Percentage of sterility [2]: 100.0%
- Number of grains in ear under isolator [2]: 0.0
- Number of grains in ear in open pollination [2]: 29.5
- Percentage of grain setting in open pollination [2]: 95.5%
- Sterility percentage [3]: 100.0%
- Number of grains in ear under isolator [3]: 0.0
- Number of grains in ear in open pollination [3]: 28.6
- Percentage of grain setting in open pollination [3]: 91.7%
- Sterility percentage [4]: 100.0%
- Number of grains in panicle under isolator [4]: 0.0
- Number of grains in panicle in open pollination [4]: 138.9
- Percentage of grain setting in open pollination [4]: 95.5%
- Sterility percentage [8]: 99.7%
- Number of grains in ear under isolator ([8]; control 31.5): 0.1
- Number of grains in ear in open pollination ([8]; control 39.4): 35.2
- Percentage of grain setting in open pollination ([8]; control = 100%): 89.3%
- Sterility percentage [9]: 100.0%
- Number of grains in ear under isolator ([9]; control 41.3): 0.0
- Number of grains in ear in open pollination ([9]; control 45.8): 40.9
- Percentage of grain setting in open pollination ([9]; control = 100%): 89.3%
- Sterility percentage [10]: 97.8%
- Number of grains in ear under isolator ([10]; control 23.4): 0.4
- Number of grains in ear in open pollination ([10]; control 25.2): 23.0
- Percentage of grain setting in open pollination ([10]; control = 100%): 91.3%
